Article PMC10609720, “Antiviral Activity of Flavonoids from Geopropolis of the Brazilian Jandaira Bee against Zika and Dengue Viruses” (Pharmaceutics, 2023)

Tested on: DENV-2
Assay: Post-treatment antiviral assay, viral titration by TCID50, DENV-infected Vero cells
Type: cell-based
Details: treatment at CC20, microscopy, Figure 5B,C
Procedure: One day prior to infection with the ZIKV or DENV strain, Vero cells were seeded in 24-well plates (5 × 10^4 cells/well). The infection was performed at the multiplicity of infection (MOI) of 0.1 for 2 h at 37 °C in 5% CO2. After virus internalization, the inoculum was removed, and the cells were washed using the growth medium. […] 6-MMPr, used as positive control drug, was also included as a drug treatment in some wells [33]. Controls of mock (non-infected) and infected non-treated cells were included. At 120 h post-infection (hpi), the cytopathic effect was evaluated using an inverted microscope (AE2000 binocular microscope, Motic, Hong Kong), and cells were photographed with a smartphone. The cell supernatant was harvested at 120 hpi and stored at −80 °C for posterior virus titration, using the TCID50 method.
The TCID50 method was used here to perform viral titration. The titer values were expressed as log10 TCID50/mL. One day prior to titration, Vero cells were seeded in a 96-well plate (1 × 10^4 cells/well) at 37 °C in a 5% CO2 incubator. […]
The differences in viral titer of treated and untreated infected cells were analyzed according to ANOVA followed by the Dunnett test using GraphPad Prism software v.5.01 (GraphPad Software, La Jolla, CA, USA). […] The CC50 and CC20 values were also calculated using GraphPad Prism software in a non-linear regression interpretation. […]

`O=C1C[C@@H](c2ccc(O)cc2)Oc2cc(O)cc(O)c21` [Naringenin] was tested, and the “DENV-induced cytopathic effect in Vero cell monolayers” value was “prevented morphological modifications”.
